Binding of CDR-mutated scFvs to a peptide of the spike HR2 region

Target peptide (SARS-CoV-2 spike, HR2 region): PDVDLGDISGINAS

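The starting antibody came from a phage panning campaign against this peptide. The library (AAYL51) carries one to three amino acid substitutions per variant, with no insertions or deletions. The scFvs were displayed on barcoded MATa yeast, the peptide on MATalpha yeast. Pairs that bind mate more often; barcode pairs of the diploids are counted by sequencing. A regression on co-assayed BCL2-family reference pairs converts the normalised counts of each replicate to an apparent Kd. There are three technical replicates.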

Parent: Ab-91, a human scFv built as VL, three GGGGS repeats, VH. Only the CDRs of the heavy chain vary.
VL: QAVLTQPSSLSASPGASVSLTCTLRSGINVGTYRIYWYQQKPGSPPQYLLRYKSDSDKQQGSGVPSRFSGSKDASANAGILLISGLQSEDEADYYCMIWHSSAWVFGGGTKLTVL
VH: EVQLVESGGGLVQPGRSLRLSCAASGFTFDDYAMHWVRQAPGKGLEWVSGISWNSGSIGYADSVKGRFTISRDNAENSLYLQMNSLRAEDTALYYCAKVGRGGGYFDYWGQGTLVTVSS

The parent's heavy chain CDRs are GFTFDDYAMH, GISWNSGSIGYADSVK, VGRGGGYFDY; each variant's own CDRs replace them letter for letter. Values are apparent Kd, the geometric mean of the replicates that gave a signal; lower means stronger binding. "nd" means that the variant was in the library but no mating with the target was seen in any replicate; the authors take this as a sign of poor binding, and no number exists. In this assay the parent's reference entry averaged 72 nM; its copy inside this library read 7.5 nM. As a blank, each scFv also met three strains without target: over library AAYL51, 21% of these pairings were detected, typically at 34 µM and seldom below 1.8 µM.

Result 100 µM (1 of 3 replicates), variant GFWFDDEAMH / GISWNSGSIGYADSVK / VGRGGGYFDY.
Result 140 µM (1 of 3 replicates), variant GFTFDDYAMH / GISWNSGSIGYADSVK / VGRDGECFDY.
Result nd (0 of 3 replicates), variant GFTFFDHAMH / GISWNSGSIGYADSVK / VGRGQGYFDY.
Result 1.8 µM (1 of 3 replicates), variant GFTTDDYAMH / GISRNSGSIGYADSVK / VGRGGGYFDW.
Result 42 µM (1 of 3 replicates), variant GFKFDDDAMH / GHSWNSGSIGYADSVK / VGRGGGYFDY.
Result nd (0 of 3 replicates), variant GFTFDDYAMH / GISWNTGSILYADSVK / VTRGGGYFDY.
Result 74 µM (2 of 3 replicates), variant GFTFDDYFMH / GISWASVSIGYADSVK / VGRGGGYFDY.
Result 330 µM (1 of 3 replicates), variant GFTFDDYAKH / RISWNSGQIGYADSVK / VGRGGGYFDY.
Result 27 µM (1 of 3 replicates), variant GFTFIDYAMH / GISWNSGRIGYADSVD / VGRGGGYFDY.
Result 3.8 µM (1 of 3 replicates), variant GFTFDDYAMH / SISWNTGSIGGADSVK / VGRGGGYFDY.
Result nd (0 of 3 replicates), variant EFTFDDYAMH / GISWCSGSIGYADSGK / VGRGGGYFDY.
Result 84 µM (2 of 3 replicates), variant GFTFDDYAMH / GISWNYGSIGYADWVK / VGRGGGYYDY.
Result 14 µM (2 of 3 replicates), variant GFTFDGYAMH / GISHNSGSIGYADSVK / VGRGGGVFDY.
Result nd (0 of 3 replicates), variant GFTFDDYAMY / GISWNSGSIGYADSKK / VDRGGGYFDY.
Result 120 µM (2 of 3 replicates), variant GFTQDDHAMH / GISWNSGSIGEADSVK / VGRGGGYFDY.
Result nd (0 of 3 replicates), variant GFTFDDYAML / GISWCSGSIGYADSVK / VGRGGGYFHY.
Result 95 nM (3 of 3 replicates), variant GFTFTDYAMH / GISWNSGSIGYADSVK / VGRGGGTFDF.
Result 79 µM (3 of 3 replicates), variant GFTFDDYAMH / GMSWNSGSIGYADSVK / VGRGGGGFDY.
Result nd (0 of 3 replicates), variant GFTFDDYAMH / KISWNSGSIGYADSVK / VDRGGGYFDS.
Result 2.6 nM (3 of 3 replicates), variant GFTFDDYAMH / GISWNSGSDGYADSVK / VIEGGGYFDY.
Result 8.1 µM (1 of 3 replicates), variant GFTFDDYIMH / GYSWNSGSIGHADSVK / VGRGGGYFDY.
Result 53 µM (1 of 3 replicates), variant GNTFDDYAMH / GISWNSGSIGNADSVK / VGRGGGYIDY.
Result nd (0 of 3 replicates), variant GFTFDDYAMH / GISWNSGSIGYCDQVK / VGRGYGYFDY.
Result 26 µM (1 of 3 replicates), variant GFTFDDYAMH / GISWNSGVIGYADSEK / VGYGGGYFDY.
Result 2.0 µM (3 of 3 replicates), variant GFTFDDYAMH / GISWNSGSIGTAASVK / VGRHGGYFDY.
Result nd (0 of 3 replicates), variant WFTIDDYAMH / GIVWNSGSIGYADSVK / VGRGGGYFDY.
Result 52 µM (1 of 3 replicates), variant GFTFDDYAQH / GISTNSGSIGYADSVK / VGRGGGYTDY.
Result nd (0 of 3 replicates), variant GFTFDDYAMH / GWSWNSGSIGYASSVK / VGRGGGYFDR.
Result nd (0 of 3 replicates), variant GFTTDDYAEA / GISWNSGSIGYADSVK / VGRGGGYFDY.
Result 3.9 µM (2 of 3 replicates), variant LFTFDDYAMH / GISWNSGSIGYQDSVK / VGRGGGGFDY.
Result 100 µM (1 of 3 replicates), variant GFTFDDYAMH / GIGWNMGSIGYAVSVK / VGRGGGYFDY.
Result 54 µM (2 of 3 replicates), variant GFTFDDYAFH / GISWNSGSIVYMDSVK / VGRGGGYFDY.
Result 230 µM (1 of 3 replicates), variant GFTFDDYAMH / GISWISLSIGYADSVK / VGTGGGYFDY.
Result 5.5 µM (1 of 3 replicates), variant GFTFYDYAMH / GISWNSGSCLYADSVK / VGRGGGYFDY.
Result 3.4 µM (3 of 3 replicates), variant GFTFDDYAMH / GISWNSGDIGYADSLK / VGRGGGKFDY.
Result 210 µM (1 of 3 replicates), variant GFTFDDYFMH / GISWNSGSIGQADSVK / VGRGGMYFDY.
Result nd (0 of 3 replicates), variant GFTFDDYFMH / GISWNSGSIQYADSVK / VGRYGGYFDY.
Result 52 µM (1 of 3 replicates), variant LFTFDDYAMH / GISWNSGSIGYADSVK / VGRGWGYTDY.
Result 230 nM (3 of 3 replicates), variant GFTFKDYAMH / GISWNSGSIGYADSVK / MGRGGGYFDY.
Result nd (0 of 3 replicates), variant GATFRDYAMH / GISWNSGSIGYQDSVK / VGRGGGYFDY.
Result 910 µM (3 of 3 replicates), variant GFTFDDVAMH / GISWNSGSIGYADSVK / VGRGGMYFDY.
Result nd (0 of 3 replicates), variant GYTFDMYAMH / GISWNSGSIGYADSVK / LGRGGGYFDY.
Result 1.8 µM (2 of 3 replicates), variant GFTFDDYAMH / GVNWNSGSIGYADSVK / VGRYGGYFDY.
Result 12 nM (3 of 3 replicates), variant GFTFDDYAMH / GISWNSMSIGYADYVK / YGRGGGYFDY.
Result 190 µM (2 of 3 replicates), variant GFTEDAYAMH / GISWNSGSIGYADSVK / VYRGGGYFDY.
Result 20 nM (3 of 3 replicates), variant GFTFDDYAMH / GISWNSGSIGYEDSVK / VGRGGGAFDY.
Result 18 µM (1 of 3 replicates), variant GFTFDDYAMH / CISWNSGSIGYADSVK / VGRGGVYFDY.
Result 130 µM (3 of 3 replicates), variant GFTFDDYAMH / GISWNSGSIGYADSPR / VMRGGGYFDY.
Result 100 µM (3 of 3 replicates), variant GFTFDDYAMG / GISWNSGSIGYADSVK / VARGGGYFDW.

Picked from the list: the 6 lowest averages where every replicate gave a value.

CDR-H1,CDR-H2,CDR-H3,apparent Kd,detected
GFTFDDYAMH,GISWNSGSDGYADSVK,VIEGGGYFDY,2.6 nM,3/3
GFTFDDYAMH,GISWNSMSIGYADYVK,YGRGGGYFDY,12 nM,3/3
GFTFDDYAMH,GISWNSGSIGYEDSVK,VGRGGGAFDY,20 nM,3/3
GFTFTDYAMH,GISWNSGSIGYADSVK,VGRGGGTFDF,95 nM,3/3
GFTFKDYAMH,GISWNSGSIGYADSVK,MGRGGGYFDY,230 nM,3/3
GFTFDDYAMH,GISWNSGSIGTAASVK,VGRHGGYFDY,2.0 µM,3/3

The measurements come from Engelhart et al. 2022 (doi:10.1038/s41597-022-01779-4) through the FLAb antibody collection.